Laboratory results from patent US9404933B2, “Methods for determining patient response to anti-platelet aggregation therapy” (INVITROX, INC., priority 2011, dated 2016).

Tested on: human platelets
Details: platelets from 50 patients with a genotype that does not activate Plavix, dosed 75 and 150 mg Plavix; ADP 2 mM, 5 mM, 10 mM; FIG. 14

In the case of `COC(=O)[C@H](c1ccccc1Cl)N1CCc2sccc2C1` [Plavix, clopidogrel bisulfate], the “platelet activation (change of electrophoretic mobility versus resting platelets) after ADP” value is reported as “they all activate”.
